Assay results: BindingDB's records for 19027295

Target: Neuronal acetylcholine receptor subunit alpha-3 (Homo sapiens, UniProt P32297)

`CNC(=O)OCCC(C)N(C)C` (stereo unspecified) showed an EC50 of 170 µM.
